# Assay results taken from ChEMBL document CHEMBL1130165, “Butitaxel analogues: synthesis and structure-activity relationships” (J Med Chem, 1997).
# Amino acid sequences for entries named in this document (tags omitted).
# UniProt Q9H4B7, whole entry: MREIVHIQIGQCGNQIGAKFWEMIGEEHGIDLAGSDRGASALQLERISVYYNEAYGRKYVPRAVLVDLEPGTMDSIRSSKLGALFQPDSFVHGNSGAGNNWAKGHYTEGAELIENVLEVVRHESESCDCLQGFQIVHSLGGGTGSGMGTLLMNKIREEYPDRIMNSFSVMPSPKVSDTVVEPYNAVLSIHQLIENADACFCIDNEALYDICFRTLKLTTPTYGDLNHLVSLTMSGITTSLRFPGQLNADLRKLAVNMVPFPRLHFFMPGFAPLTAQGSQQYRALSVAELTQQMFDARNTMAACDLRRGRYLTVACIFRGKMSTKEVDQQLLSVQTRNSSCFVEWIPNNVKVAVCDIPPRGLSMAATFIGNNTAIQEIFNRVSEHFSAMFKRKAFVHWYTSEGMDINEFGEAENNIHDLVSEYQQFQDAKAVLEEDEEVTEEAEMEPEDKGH
# Test system: B16
# Experiment: Ratio of ED50 of compound to that of ED50 of paclitaxel; ED50 expressed as concentration which produces 50% inhibition of proliferation of B16 melanoma cells after 40h incubation
# Assay type: functional, Mus musculus
# In short: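 B16 melanoma cells were incubated with compound for 40 h. ED50 is the concentration giving 50% inhibition of proliferation. Each value is expressed as a ratio to the paclitaxel ED50.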
row,Compound,ED50 ratio
1,CC(=O)O[C@@]12COC1C[C@H](O)[C@@]1(C)C(=O)[C@H](O)C3=C(C)[C@@H](OC(=O)[C@H](O)[C@@H](NC(=O)/C=C/c4cccs4)C(C)(C)C)C[C@@](O)([C@@H](OC(=O)c4ccccc4)[C@@H]12)C3(C)C (stereo not given in full),2.7

# Molecular target: Tubulin beta-1 chain (Homo sapiens) (UniProt Q9H4B7)
# Experiment: Ratio of ED50 of compound to that of ED50 of paclitaxel; ED50 expressed as concentration which causes polymerization of 50% of the tubulin in microtubule assembly assay (in vitro)
# Assay type: functional
# In short: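 In vitro microtubule assembly assay. […] Each compound's ED50 is expressed as a ratio to the paclitaxel ED50.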
row,ED50 ratio,Compound
1,2.4,CC(=O)O[C@@]12COC1C[C@H](O)[C@@]1(C)C(=O)[C@H](O)C3=C(C)[C@@H](OC(=O)[C@H](O)[C@@H](NC(=O)c4ccc(C)s4)C(C)(C)C)C[C@@](O)([C@@H](OC(=O)c4ccccc4)[C@@H]12)C3(C)C (stereo not given in full)
2,1.4,CCOC(=O)N[C@H]([C@@H](O)C(=O)O[C@H]1C[C@@]2(O)[C@@H](OC(=O)c3ccccc3)[C@H]3[C@](C)(C(=O)[C@H](O)C(=C1C)C2(C)C)[C@@H](O)CC1OC[C@]13OC(C)=O)C(C)(C)C (stereo not given in full)
3,0.96,CC(=O)O[C@@]12COC1C[C@H](O)[C@@]1(C)C(=O)[C@H](O)C3=C(C)[C@@H](OC(=O)[C@H](O)[C@@H](NC(=O)c4cccn4C)C(C)(C)C)C[C@@](O)([C@@H](OC(=O)c4ccccc4)[C@@H]12)C3(C)C (stereo not given in full)
4,0.86,CCCCOC(=O)N[C@H]([C@@H](O)C(=O)O[C@H]1C[C@@]2(O)[C@@H](OC(=O)c3ccccc3)[C@@H]3[C@]4(OC(C)=O)COC4C[C@](C)(O)[C@@]3(C)C(=O)[C@H](O)C(=C1C)C2(C)C)C(C)(C)C (stereo not given in full)
5,0.84,CC(=O)O[C@@]12COC1C[C@H](O)[C@@]1(C)C(=O)[C@H](O)C3=C(C)[C@@H](OC(=O)[C@H](O)[C@@H](NC(=O)OC(C)C)C(C)(C)C)C[C@@](O)([C@@H](OC(=O)c4ccccc4)[C@@H]12)C3(C)C (stereo not given in full)
6,0.85,CC(=O)O[C@@]12COC1C[C@H](O)[C@@]1(C)C(=O)[C@H](O)C3=C(C)[C@@H](OC(=O)[C@H](O)[C@@H](NC(=O)c4ccsc4)C(C)(C)C)C[C@@](O)([C@@H](OC(=O)c4ccccc4)[C@@H]12)C3(C)C (stereo not given in full)
7,1.5,CC(=O)O[C@@]12COC1C[C@H](O)[C@@]1(C)C(=O)[C@H](O)C3=C(C)[C@@H](OC(=O)[C@H](O)[C@@H](NC(=O)c4ccco4)C(C)(C)C)C[C@@](O)([C@@H](OC(=O)c4ccccc4)[C@@H]12)C3(C)C (stereo not given in full)
8,1.5,CC(=O)O[C@@]12COC1C[C@H](O)[C@@]1(C)C(=O)[C@H](O)C3=C(C)[C@@H](OC(=O)[C@H](O)[C@@H](NC(=O)C4CCCCC4)C(C)(C)C)C[C@@](O)([C@@H](OC(=O)c4ccccc4)[C@@H]12)C3(C)C (stereo not given in full)

# Test system: not listed separately
# Experiment: Ratio of solubility to that of paclitaxel solubility
# Assay type: ADME
row,Ratio,Compound
1,3,CC(=O)O[C@@]12COC1C[C@H](O)[C@@]1(C)C(=O)[C@H](O)C3=C(C)[C@@H](OC(=O)[C@H](O)[C@@H](NC(=O)/C=C/c4cccs4)C(C)(C)C)C[C@@](O)([C@@H](OC(=O)c4ccccc4)[C@@H]12)C3(C)C (stereo not given in full)
